Source: patent US20080182249A1, “Expression systems for mammalian and mycobacterial desaturases” (priority 2006, published 2008)

Biological target: T1, recombinant mouse stearoyl-CoA desaturase 1 (mSCD1) (UniProt P21147)
T1 sequence: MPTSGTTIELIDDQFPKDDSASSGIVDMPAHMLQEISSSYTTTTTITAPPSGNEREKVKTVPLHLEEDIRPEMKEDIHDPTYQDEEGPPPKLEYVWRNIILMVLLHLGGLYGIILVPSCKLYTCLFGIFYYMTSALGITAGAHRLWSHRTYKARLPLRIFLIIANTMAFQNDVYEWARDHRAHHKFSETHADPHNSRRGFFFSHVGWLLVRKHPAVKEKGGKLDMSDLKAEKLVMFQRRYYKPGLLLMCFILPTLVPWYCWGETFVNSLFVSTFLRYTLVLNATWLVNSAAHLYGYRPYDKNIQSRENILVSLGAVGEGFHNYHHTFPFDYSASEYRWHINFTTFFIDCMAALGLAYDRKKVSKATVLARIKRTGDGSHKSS

soluble human cytochrome b5 reductase
% change vs. mSCD1 (conversion of 18:0-CoA to 18:1-CoA): -14.2%
